# Ab-14 light chain CDR variants: yeast mating affinities

Target: peptide PDVDLGDISGINAS, taken from heptad repeat 2 (HR2) of SARS-CoV-2 spike.

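Phage display of a naive human antibody library on the peptide gave the parent. Designed CDR sequences, proposed from the first random library and measured here. Their group label is 14L_GP_Gibbs (GP: Gaussian process model; Gibbs: Gibbs sampling; a sequence that several methods proposed may carry one label only). Affinity was read by AlphaSeq, a pooled yeast mating assay with surface-displayed partners. After mating in shaken culture at 30 °C for 16 h, diploids were selected and their barcode pairs sequenced. A regression on co-assayed BCL2-family reference pairs converts the normalised counts of each replicate to an apparent Kd. There are six technical replicates.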

Each scFv is VH, three GGGGS repeats, VL, as in the parent Ab-14, and differs from it in the CDRs of the light chain only.
VH: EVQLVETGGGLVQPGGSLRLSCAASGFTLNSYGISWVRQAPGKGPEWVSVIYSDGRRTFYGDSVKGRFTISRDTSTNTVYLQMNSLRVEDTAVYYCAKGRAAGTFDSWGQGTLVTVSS
VL: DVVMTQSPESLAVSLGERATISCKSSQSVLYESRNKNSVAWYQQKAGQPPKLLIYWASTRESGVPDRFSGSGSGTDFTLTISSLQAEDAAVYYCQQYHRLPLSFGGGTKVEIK

Each variant is given by its three light chain CDRs, as the data file delimits them; those of the parent are KSSQSVLYESRNKNSVA, WASTRES, QQYHRLPLS.
Numbers give log10(Kd / nM), so 0 is 1 nM and 3 is 1 µM. Smaller is tighter.
Where no diploid with the target was found in that replicate, the entry reads "ND": below detection, most likely a poor binder, though not proof of it.

| CDR-L1 | CDR-L2 | CDR-L3 | log10 Kd (nM) by replicate | control signals |
|---|---|---|---|---|
| KSSQMDLYESRNGNSVA | DASTRSD | QQYHRLPLS | 0.36 / 0.32 / 0.21 / -0.01 / 0.24 / 0.27 | 2/18 (2.68) |
| KFEQLVLPEDRNKNSVA | NASTRED | QQYHRLPLS | 0.17 / -0.20 / -0.17 / -0.25 / -0.24 / 0.01 | 0/18 |
| KLSQSELYESRCDNSVA | SASTRCE | QQYHRLPLS | 0.41 / 0.16 / 0.45 / 0.38 / 0.22 / 0.58 | 1/18 (3.89) |
| KISGSYLYESRNWNSVA | EASQREQ | QQYHRLPLS | 0.20 / 0.08 / -0.01 / 0.00 / 0.00 / 0.18 | 2/18 (2.39) |
| IISQLKLGEWRNKNSVA | DASQRES | QQYHRLPLS | 0.52 / 0.41 / 0.26 / 0.21 / 0.37 / 0.46 | 3/18 (2.74) |
| KLVESELYESRQSNSVA | NASYREE | QQYHRLPLS | 0.20 / 0.26 / 0.24 / -0.05 / 0.21 / 0.41 | 1/18 (5.07) |
| KLRWSNLYESRNANSVA | NASQRCS | QQYHRLPLS | 0.08 / 0.12 / -0.08 / -0.17 / 0.08 / -0.08 | 7/18 (3.02) |
| KLMQSTPYESRNANNVA | YASTRES | QQYHRLPLS | 0.39 / 0.21 / 0.25 / 0.04 / -0.07 / -0.01 | 0/18 |
| KLQMMVEMESRNPNSVA | SASTRLS | QQYHRLPLS | 1.90 / 0.74 / 0.34 / 0.65 / 0.07 / 0.81 | 0/18 |
| KLQQQAEYESRVKNSVA | QASTRES | QQYHRLPLS | ND / ND / ND / ND / ND / ND | 0/18 |
| KVEQSVMLESRWKNSVA | NASTRMS | QQYHRLPLS | 0.18 / 0.24 / 0.14 / -0.01 / 0.01 / 0.36 | 1/18 (4.78) |
| KSSGQVCYGDRNKNSVA | NASLREQ | QQYHRLPLS | 0.77 / 0.58 / 0.78 / 0.71 / 1.00 / 0.67 | 2/18 (2.43) |
| KISCSSLYDDANINSVA | NASTRLS | QQYHRLPLS | 0.04 / -0.06 / -0.18 / -0.32 / -0.19 / 0.04 | 1/18 (2.29) |
| KLSNSELYESRQKNSVA | EASQREM | QQYHRLPLS | 0.79 / 0.65 / 0.31 / 0.72 / 0.43 / 0.88 | 0/18 |
| KFSQSNLYEDRMQNNVA | NASQREQ | QDYHRLPLS | 0.67 / 1.01 / 0.49 / 0.58 / 0.67 / 0.85 | 1/18 (3.21) |
| KWSQSWLMESMNSASVA | HASQRES | QQYHRLPLS | 0.64 / 0.65 / 0.70 / 0.60 / 0.33 / 0.50 | 0/18 |
| LISQSVLYESRDKNSVA | NASTRLS | QQYHRLPLS | 0.16 / 0.00 / -0.04 / 0.28 / -0.08 / 0.17 | 0/18 |
| KVSFSVMLESRNKNAVA | EASQRSS | QQYHRLPLS | 0.03 / 0.00 / -0.17 / -0.12 / -0.14 / 0.01 | 0/18 |
| KLMPSMEYESRMKNSVA | EASVREE | QQYHRLPLS | 0.03 / 0.12 / -0.01 / 0.09 / 0.16 / 0.19 | 3/18 (3.63) |
| KLHQSQGYESRNINSVA | NASQRCS | QQYHRLPLS | 0.28 / 0.24 / -0.14 / 0.00 / 0.10 / 0.21 | 0/18 |
| KDMQSWLYWSRNQNSVA | NASQREH | QQYHRLPLS | 0.45 / 0.26 / 0.09 / 0.18 / 0.17 / 0.37 | 5/18 (3.82) |
| KLSQSVGGESRNPNSVA | HASTRER | QQYHRLPLS | 0.22 / 0.12 / 0.31 / -0.08 / 0.33 / 0.51 | 2/18 (2.46) |
| KIQQGELQESRNKNSVA | HASERES | QQYHRLPLS | -0.42 / -0.17 / -0.37 / -0.69 / -0.36 / -0.41 | 0/18 |
| HLEQSSLYESRNKNSVA | NASTRCS | QQYHRLPLS | -0.01 / -0.48 / -0.61 / -0.45 / -0.36 / -0.42 | 1/18 (2.39) |
| KSSCSVDQEDRNSNSVA | NASTREW | QQYHRLPLS | 0.35 / 0.39 / 0.08 / 0.16 / 0.16 / 0.23 | 0/18 |
| KYSQSQGYESRNQWSVA | NASTRES | QQYHRLPLS | 0.02 / -0.21 / -0.06 / -0.24 / -0.12 / 0.02 | 2/18 (3.07) |
| KLQISVLDEERNDNSVA | WASHRES | QQYHRLPLS | 1.08 / 1.02 / 1.02 / 1.01 / 1.87 / 1.00 | 1/18 (2.12) |
| KLSQSWLYESRNSKSVA | DASTRLS | QQYHRLPLS | 0.03 / -0.11 / -0.28 / -0.34 / -0.02 / -0.03 | 1/18 (1.96) |
| KVFQSVLLESMLVNSVA | YASQRED | QQYHRLPLS | ND / ND / ND / ND / 1.25 / ND | 0/18 |
| KCQILVEQESRQKNSVA | NASKRES | QQYHRLPLS | ND / ND / ND / ND / ND / ND | 0/18 |
| KQSQSGPYEDRNFNSVA | HASTRIS | QQYHRLPLS | 0.31 / 0.40 / 0.33 / 0.53 / 0.05 / 0.43 | 1/18 (2.49) |
| KLSQSVLYEGRLKNSVA | NASTRMS | QQYHRLPLS | 0.41 / 0.31 / 0.45 / 0.42 / 0.73 / 0.52 | 1/18 (3.05) |
| KLSQWQWGEDRNKNSVA | SASTRCS | QQYHRLPLS | 0.08 / 0.20 / 0.12 / -0.23 / 0.01 / 0.39 | 1/18 (1.70) |

Extract of 4 entries:

| CDR-L1 | CDR-L2 | CDR-L3 | log10 Kd (nM) by replicate | control signals |
|---|---|---|---|---|
| KFEQLVLPEDRNKNSVA | NASTRED | QQYHRLPLS | 0.17 / -0.20 / -0.17 / -0.25 / -0.24 / 0.01 | 0/18 |
| KISGSYLYESRNWNSVA | EASQREQ | QQYHRLPLS | 0.20 / 0.08 / -0.01 / 0.00 / 0.00 / 0.18 | 2/18 (2.39) |
| KLQISVLDEERNDNSVA | WASHRES | QQYHRLPLS | 1.08 / 1.02 / 1.02 / 1.01 / 1.87 / 1.00 | 1/18 (2.12) |
| KVEQSVMLESRWKNSVA | NASTRMS | QQYHRLPLS | 0.18 / 0.24 / 0.14 / -0.01 / 0.01 / 0.36 | 1/18 (4.78) |

The range of this assay differs from that of the first round, and the authors advise against merging the two.
In the paper, a design with two or fewer of six values counts as a poor binder.
As a blank, each scFv also met three strains without target: over all light chain designs, 4% of these pairings were detected, typically at 2.64 and seldom below 1.59. For each scFv, signals with the empty controls are counted beside the result, with their mean in brackets.

The measurements come from Li et al. 2023 (doi:10.1038/s41467-023-39022-2) through the FLAb antibody collection.